The test system of the assay is Healthy PBMC (Peripheral Blood Mononuclear Cells). Briefly: Cell viability of healthy PBMC. As to conditions: PBMC tests compared to tumour cell line tests. The procedure:
All cell lines were plated in black, tissue culture treated, 96 well plates at a cell density of 1×10^5 celis/mL (1×10^4 cells/well). Cells were allowed 24 h to attach to the plate prior to being dosed with drug. […] Cells were allowed to incubate for 48 or 72 h. Following incubation cells were stained with Alamar Blue such that the final concentration of Alamar Blue in the test well was 10%. Cells were stained for 2 h and then fluorescence was measured on a Molecular Devices Analyst GT multimode plate reader using an excitation filter of 530/25 nm and an emission filter of 580/10 nm and a 561 nm dichroic mirror. Cell viability was expressed as a percentage of untreated control cells. Data are expressed as mean±standard error and are the average of four independent cell preparations.
Healthy PBMC (Peripheral Blood Mononuclear Cells) were treated similarly to the above tumour cell line tests.

As for `O=C1N[C@@H]2C(=C[C@H](O)[C@@H](O)[C@H]2O)c2cc3c(c(O)c21)OCO3` [narciclasine, reference compound], the “selectivity for cancer cells over healthy cells” value is reported as “selectively kill cancer cells at a much higher percentage than healthy cells”.

For the origin of these results see US20140234345A1, “NOVEL ANTI-CANCER ISOCARBOSTYRIL ALKALOID CONJUGATES” (priority 2011, published 2014).
